Measured values reported in patent publication US20250144562A1, “ELECTROCHEMICAL CO2 CAPTURE WITH AIR STABLE REDOX SPECIES” (President and Fellows of Harvard College, priority 2022, published 2025).

Assay: Stability in air of reduced BTMAPAQ isomers (with and without captured CO2) tracked by 1H NMR
[1] = with captured CO2, D2O, 1 M KCl, air exposure

Row | Compound | air stability (1H NMR spectra unchanged) [1] | air stability (1H NMR spectra unchanged) (without captured CO2, D2O, 1 M KCl, air exposure) | air stability (1H NMR spectra unchanged) (with captured CO2, D2O, 1 M TBABr, air exposure over nine days)
1 | C[N+](C)(C)CCCOc1ccc(OCCC[N+](C)(C)C)c2c1C(=O)c1ccccc1C2=O [1,4-BTMAPAQ] | good air stability over the first two days | excellent air stability over the first two days | –
2 | C[N+](C)(C)CCCOc1cccc2c1C(=O)c1cccc(OCCC[N+](C)(C)C)c1C2=O [1,5-BTMAPAQ] | great air stability over the first two days | – | –
3 | C[N+](C)(C)CCCOc1cccc2c1C(=O)c1c(OCCC[N+](C)(C)C)cccc1C2=O [1,8-BTMAPAQ] | – | – | excellent air stability over the first five days
